Results from publication PMC7899671 (eLife, 2021).

Test system: α1L9'Tβ2γ2L, α1L9'T/V279Aβ2γ2L, and α1β2γ2L receptors
Assay: MWC model of channel gating, global fit to estimated open probability
Conditions: MWC model parameter

**Q.** For `CN1C(=O)CN=C(c2ccccc2)c2cc(Cl)ccc21` [DZ, diazepam], which “d (factor by which DZ binding influences channel opening)” value is on record?
**A.** 0.59
